How the values were obtained:
30 minutes = assay: PubChem AID 652085; settings: C57Bl6 mouse, 10 mg/kg IP, brain/plasma LC-MS/MS
120 minutes = assay: PubChem AID 652085; settings: C57Bl6 mouse, 10 mg/kg IP, brain/plasma LC-MS/MS

**Q.** `COC(=O)c1cc(Br)cnc1N1CCC(NC2CCCCC2)C(O)C1` (stereo unspecified) was tested. Which brain to plasma ratio (30 minutes; stronger effect = higher value) did it give?
**A.** 3.4

**Q.** And the brain concentration (30 minutes; mouse brain level)?
**A.** 2680 nM

**Q.** What about the plasma concentration (30 minutes; mouse plasma level) of the same compound?
**A.** 790 nM

**Q.** What about the brain to plasma ratio (120 minutes; stronger effect = higher value) of the same compound?
**A.** 1.9

**Q.** And the brain concentration (120 minutes; mouse brain level)?
**A.** 130 nM

**Q.** And the plasma concentration (120 minutes; mouse plasma level)?
**A.** 70 nM

From PubChem BioAssay AID652085 (The Scripps Research Institute Molecular Screening Center, 2013)
